Results from US20240058464A1, “COMBINATION THERAPY WITH FOR46 FOR CANCER” (Fortis Therapeutics, Inc., priority 2021, published 2024).

Tested on: CD46 expression
Test: CD46 expression by RNA-sequencing in paired tumor biopsies before and after therapy;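 note: FFPE human tumor biopsies, exome-capture RNA-seq, reads aligned to GRCh37, counts normalized for GC content, length and depth, summed per gene, log2-transformed, samples paired before versus after therapy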
Details: RNA-seq log2-transformed counts

In the case of N.N.O=C([O-])C1(C(=O)[O-])CCC1.[Pt+2] [carboplatin], the “CD46 expression, Post-Treatment Biopsy” value (Endometrial Cancer) is reported as 6.25 and the “CD46 expression, Pre-Treatment Biopsy” value (Non-Small Cell Lung Cancer) is reported as 6.13.
